Data reported in patent US20070270348A1, “Compositions and Methods for Modulating Insulin-Activated Nitric Oxide Synthase” (priority 2004, published 2007).
Ends that are not written are not given here.

Tested on: Ehrlich's ascitic carcinoma cells (EAC cells)
Assay: Survival and body weight of mice with Ehrlich's carcinoma ascites
Conditions: EAC injection and oral allimin; from 20.57±0.78 g; control 55.76±1.69 g

Question: How did the “body weight after peritoneal fluid accumulation” value turn out when “Allimin (XMIPTNGEGLYAGQSLDVEQYKFIMRPDDNLVXYX; X: residue not identified in the source; listed as Allium sp.)” was run?
Answer: 38.68 ± 1.34 g
